Source: PubChem BioAssay
Shown are actives, neighbours in structure and some others; about 13% of the full set was active somewhere.
G9a block: G9a (human) methyltransferase inhibition. Q96KQ7. G9a H3K9 monomethylation, AlphaScreen, 2 h. Potency, µM (series often up to 102 µM), for the others: top-dose activity, negative = inhibition, hits mostly inhibitors. hit rate 8.8% among 350,000. AID 504332; also: potency is read from the fitted curve at half-maximal effect; % is scaled to controls: 0 for no effect and ±100 for the full control effect; nearly all actives have a fitted effect of over 75% in size
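G9a (20 nM) was preincubated 15 min with compound, then reacted 2 h at room temperature with 500 nM biotin-H3K9 peptide and 20 µM SAM. Monomethyl-H3K9 detected by AlphaScreen using anti-H3K9me1 antibody.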
JMJD2E inh: inhibitors of human JMJD2E histone demethylase. B2RXH2. hit rate 1.6% among 230,000. JMJD2E catalytic domain, FDH-coupled NADH fluorescence (FDH is formaldehyde dehydrogenase). Potency, µM (titrated, usually from 57.1 µM), inactives show top-dose activity change, negative = inhibition, usual class: inhibitors. AID 2147; active = well fitted inhibition curve with a large enough effect, not every such curve was filed as active; inconclusive = small, poorly fitted or top-dose-only effect, or another doubt; inactive = no such curve, though single readings can be large or run the other way;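 also: potency is read from the fitted curve at half-maximal effect; 0% = wells with enzyme and -100% = buffer wells without enzyme; nearly all actives have a fitted effect of over 50% in size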
Sfp inh: Sfp phosphopantetheinyl transferase inhibition | Q9F4F7 | Biochemical Sfp PPTase activity, qHTS | Potency, µM, inactives show max response, negative = inhibition, usual class: inhibitors | actives 3.5% (n = 310,000) | AID 1490; active = well fitted inhibition curve with a large enough effect; inconclusive = small, poorly fitted or top-dose-only effect, or another doubt; inactive = no such curve, though single readings can be large or run the other way;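 also: the enzyme is Sfp with the accession as filed and its product quenches rhodamine fluorescence; potency is read from the fitted curve at half-maximal effect; 0% = enzyme reaction without inhibitor and -100% = no enzyme wells; top concentration of the series not given in the record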
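Step 1, compound plus 15 nM Sfp-PPTase, 15 min, room temperature. Step 2, add rhodamine-CoA (5 uM) and BHQ-2-YbbR (12.5 uM). Step 3, read 525/598 nm fluorescence at 0 and 30 min.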
miR-21 reporter: miR-21 reporter, rising signal | HeLa miR-21 FLuc reporter, luciferase, 48 h | Potency, µM (doses to about 38.3 µM), inactives show at the top dose reporter change, positive = more light | 340,000 tested, under 10 active | AID 2288; active = well fitted rising curve with a large enough effect; inconclusive = small, poorly fitted or top-dose-only effect; inactive = no such curve, though single readings can be large or run the other way;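 note: % of control where 0% means no effect; miR-21 action dims this reporter so a rising signal means less miR-21 action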
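Luminescence from a firefly luciferase reporter carrying a miR-21 binding site downstream, stably expressed under a CMV promoter in HeLa cells that make miR-21 endogenously, reports miRNA modulation after 48 h compound exposure up to approximately 40uM final.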
Lamin A splicing: LMNA splicing modulation. HeLa LMNA splicing GFP/RFP minigene ratio, 48 h. Potency, µM (doses to about 46.1 µM), without a hit: top-dose ratio change, negative = inhibition, most hits filed as inhibitors. hit rate 0.01% among 200,000. AID 1487; active = well fitted inhibition curve with a large enough effect in the signal ratio, with a control signal flat, not every such curve was filed as active; inconclusive = small, poorly fitted or top-dose-only effect, or effect the other way, or a change in a side signal; the % refers to the signal ratio; also: potency is read from the fitted curve at half-maximal effect; % is scaled to controls: 0 for no effect and ±100 for the full control effect
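S3 HeLa cells stably expressing lamin A-EGFP splicing minigene plus DsRed2, 600 cells/well, 48 h compound exposure at 37C. Laser-scanning cytometry; analysed as GFP (500-530 nm)/RFP (575-640 nm) total intensity ratio; 0.5% DMSO vehicle.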
ALDH1A1 block: inhibitors of human aldehyde dehydrogenase 1A1. P00352. Purified ALDH1A1, NADH fluorescence, propionaldehyde substrate. Potency, µM (highest dose often 75.3 µM), for the others: at the highest dose activity, negative = inhibition, usual class: inhibitors. hit rate 7.3% among 220,000. AID 1030; active = well fitted inhibition curve with a large enough effect, not every such curve was filed as active; inconclusive = small, poorly fitted or top-dose-only effect, or another doubt; inactive = no such curve, though single readings can be large or run the other way;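 also: potency is read from the fitted curve at half-maximal effect; plate controls were no enzyme wells and a reference inhibitor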
Active calls of the source: *; ? = inconclusive; · = no result; ! = repeats disagree; [ ] = another dose, or the depositor's remark. Unless noted, calls follow the shape of the dose curve; as a rule, active = well fitted curve in the direction sought with a large enough effect; inconclusive = small, poorly fitted or top-dose-only effect, or another doubt; inactive = no such curve, though single readings can be large; an effect the other way counts as inactive or inconclusive.

Abbreviations – A = G9a block; B = JMJD2E inh; C = Sfp inh; D = miR-21 reporter; E = Lamin A splicing; F = ALDH1A1 block
CCCSc1nc2cc(C)c(C)cc2n1CC(O)CO (stereo not given)
  A = 4%	B = -4%	C = 9%	D = -28%	E = -1%[46 µM]	F = 1%
CC1=C(/C=C/C(C)=C/C=C/C(C)=C/C(=O)Nc2ccc(O)cc2)C(C)(C)CCC1
  A = 13µM*!	B = 20µM*!	C = 28%	D = ·	E = ?	F = 20µM*!
CC1=C(\C=C/C(C)=C/C=C\C(C)=C\C(=O)O)C(C)(C)CCC1
  A = 10µM*	B = -2%	C = 9%	D = ·	E = ?	F = 35µM*!
CC1=C(/C=C/C(C)=C/C=C/C(C)=C\C(=O)O)C(C)(C)CCC1
  A = 12%[12.7 µM]	B = -2%	C = 6%	D = ·	E = ?	F = ?
CC1=C(/C=C/C(=C/C=C/C(C)=C/C(=O)O)c2ccc(C)cc2)C(C)(C)CCC1
  A = 22µM*	B = ·	C = ?	D = ·	E = ·	F = ?
O=C(Nc1cccc(C(=O)N2CCCCC2)c1)c1ccccc1Br
  A = 11%	B = ·	C = 11%	D = -3%	E = ·	F = ·
CCN(CCO)C1CC(=O)N(c2ccccc2C)C1=O (stereo not given)
  A = 4µM*	B = -1%	C = -72%	D = -19%	E = -14%	F = 3.5µM*
Cc1ccccc1N1C(=O)CC(N(O)c2ccccc2)C1=O (stereo not given)
  A = ?	B = 5%	C = -5%	D = -14%	E = 1%	F = ?
Cc1cccc(N2C(=O)CC(Cn3nc(C)cc3C)C2=O)c1 (stereo not given)
  A = 15%	B = 2%	C = 12%	D = 4%	E = ·	F = ·
CCN(CC)C1CC(=O)N(c2cccc(C)c2)C1=O (stereo not given)
  A = 11µM*	B = 4%	C = -18%	D = -4%	E = -17%	F = 3.5µM*

Among those listed so far, these have a carbonyl joined to an NH by a bond outside any ring.
Abbreviations – A = G9a block; B = JMJD2E inh; C = Sfp inh; D = miR-21 reporter; E = Lamin A splicing; F = ALDH1A1 block
CC1=C(/C=C/C(C)=C/C=C/C(C)=C/C(=O)Nc2ccc(O)cc2)C(C)(C)CCC1
  A = 13µM*!	B = 20µM*!	C = 28%	D = ·	E = ?	F = 20µM*!
O=C(Nc1cccc(C(=O)N2CCCCC2)c1)c1ccccc1Br
  A = 11%	B = ·	C = 11%	D = -3%	E = ·	F = ·

Next section:
Abbreviations – A = G9a block; B = JMJD2E inh; C = Sfp inh; D = miR-21 reporter; E = Lamin A splicing; F = ALDH1A1 block
CN(C)CCNC(=O)CN1C(=O)COc2ccc(S(=O)(=O)N3CCCC3)cc21
  A = -10%[59 µM]	B = ·	C = ·	D = 0%	E = ·	F = ·
O=C1OC(c2ccccc2)c2ccccc21 (stereo not given)
  A = -27%	B = -7%	C = -12%	D = -17%	E = -5%	F = 14µM*
Cc1ccc(C2OC(=O)c3ccccc32)cc1 (stereo not given)
  A = ?	B = 5%	C = -10%	D = -16%	E = 2%	F = -9%
Oc1c(C(c2ccc(Cl)cc2Cl)N2CCN(Cc3ccccc3)CC2)sc2nc(-c3ccco3)nn12 (stereo not given)
  A = 13µM*	B = ·	C = ·	D = 2%	E = 16%[46 µM]	F = ·
COC(=O)c1c(C)sc(-c2c(-c3ccc4c(c3)OCCO4)[nH]c3c2c(=O)[nH]c(=O)n3C)c1O
  A = -5%[59 µM]	B = ·	C = ·	D = 2%	E = -2%[46 µM]	F = ·
O=C(c1ccc(F)cc1)N1CCN(c2cc(=O)[nH]nc2-c2ccccc2)CC1
  A = 12%	B = -1%	C = 2%	D = -7%	E = -7%	F = -7%
O=C(c1cc(-c2ccccc2)nc2ccccc12)N1CCN(c2ccccc2O)CC1
  A = ·	B = ·	C = 5%	D = 7%	E = ·	F = ·
Cc1ccc2nc(-c3ccccc3)cc(C(=O)N3CCN(c4ccccc4O)CC3)c2c1
  A = 50µM*	B = ·	C = ·	D = ·	E = ·	F = ·
Cc1ccc2nc(-c3cccnc3)cc(C(=O)N3CCN(c4ccc([N+](=O)[O-])cc4)CC3)c2c1
  A = 26%[12.7 µM]	B = -4%	C = 12%	D = 2%	E = 7%[46 µM]	F = 8.9µM*
Cc1ccc(C(=O)N2CCN(c3cc(=O)[nH]nc3-c3ccccc3)CC2)cc1
  A = 24%	B = 2%	C = 18%	D = -6%	E = -3%	F = 16µM*

Next compounds follow.
Abbreviations – A = G9a block; B = JMJD2E inh; C = Sfp inh; D = miR-21 reporter; E = Lamin A splicing; F = ALDH1A1 block
CC(=O)c1ccc(N2CCN(C(=O)c3cc(-c4cccnc4)nc4ccc(Br)cc34)CC2)cc1
  A = ?	B = -29%	C = 6%	D = -3%	E = ?	F = -6%
CCCCC1(C)OC(=O)C(=Cc2ccc(N(C)C)cc2)C(=O)O1 (stereo not given)
  A = 3%[12.7 µM]	B = -3%	C = 16%	D = 2%	E = -3%	F = 1.1µM*
Cc1ccc(CNC(=O)c2ccc(CSCc3ccccc3C)o2)cc1
  A = 12%[59 µM]	B = ·	C = ·	D = -2%	E = -28%[46 µM]	F = ·
CCOC(=O)c1ccc(NCc2ccc3c(c2)OCO3)cc1
  A = -8%[59 µM]	B = -6%	C = 56µM*	D = -30%	E = ?	F = ?
CCOC(=O)c1c(C)c(C(=O)NCCOC)c(C)n1CC
  A = 11%[59 µM]	B = 8%	C = 0%	D = -6%	E = 10%	F = 0%
O=C(O)c1cc(NCc2ccc3c(c2)OCO3)ccc1N1CCOCC1
  A = ?	B = ?	C = 3%	D = -6%	E = 4%	F = ?
CCOC(=O)c1ccc(NCc2ccc(N(C)C)cc2)cc1
  A = 10µM*	B = -18%	C = -22%	D = -38%	E = -6%	F = ?
CCOC(=O)c1ccc(CNCc2ccccc2)cc1
  A = ?	B = 1%	C = 8%	D = -40%	E = -6%	F = -2%
CCOC(=O)c1c(C)c(C(=O)Nc2ccc(N(C)C)cc2)c(C)n1CC
  A = 2µM*	B = -4%	C = -7%	D = -1%	E = ?	F = ?
O=C(COC(=O)c1ccc(O)cc1)NCc1ccc2c(c1)OCO2
  A = 6%	B = -1%	C = 13%	D = 0%	E = 12%[46 µM]	F = -4%

Later entries
Abbreviations – A = G9a block; B = JMJD2E inh; C = Sfp inh; D = miR-21 reporter; E = Lamin A splicing; F = ALDH1A1 block
COC(=O)c1cc(NCc2ccc3c(c2)OCO3)ccc1N1CCOCC1
  A = ?	B = -21%	C = -5%	D = -2%	E = 7%	F = 14µM*
COc1cccc(/C=C/C(=C2/C(=O)N(c3ccccc3)N=C2C)c2ccc(C)cc2)c1OC
  A = 1.1µM*	B = 2%	C = -2%	D = -7%	E = -5%	F = 5%
CCC(Oc1ccccc1F)C(=O)Nc1cc(-c2ccccc2)no1 (stereo not given)
  A = 1%[59 µM]	B = ·	C = ·	D = -13%	E = ·	F = ·
O=C(c1cnccn1)N1CCC2(CC1)CN(Cc1cc(C(F)(F)F)cc(C(F)(F)F)c1)C2
  A = 7%[12.7 µM]	B = ·	C = 12%	D = ·	E = ·	F = 4%
CCCCC(CC)CN=C(N)NC(N)=NCCCCCCN=C(N)NC(N)=NCC(CC)CCCC (stereo not given)
  A = -26%[59 µM]	B = -13%	C = 14µM*	D = ·	E = ·	F = -2%
c1ccc2sc(Sc3ncnc4sccc34)nc2c1
  A = -9%[59 µM]	B = ?	C = -25%	D = 1%	E = -16%	F = -5%
CCc1cc2c(Sc3nc4ccccc4s3)ncnc2s1
  A = ·	B = -7%	C = -4%	D = 20%	E = ?	F = 20µM*
Cc1ccc(SCc2nc(-c3ccc(C(=O)NCc4ccc(Cl)cc4)cc3)oc2C)cc1
  A = ?	B = ·	C = ·	D = 0%	E = ·	F = ·
Cc1cc(C)n(CC(O)Cn2c3ccc(Br)cc3c3cc(Br)ccc32)c(=O)n1 (stereo not given)
  A = 79µM*	B = -6%	C = -25%	D = 22%	E = ?	F = -12%
COc1ccccc1C1C=C(c2ccccc2)Nc2nnnn21 (stereo not given)
  A = -26%[59 µM]	B = -8%	C = 8%	D = 0%	E = -15%	F = ?

(listing goes on)
Abbreviations – A = G9a block; B = JMJD2E inh; C = Sfp inh; D = miR-21 reporter; E = Lamin A splicing; F = ALDH1A1 block
COc1ccccc1/C=C1\CCCC2=C1Nc1nnnn1C2c1ccccc1OC (stereo not given)
  A = 10µM*	B = -9%	C = 50µM*	D = 1%	E = ?	F = 25µM*
O=C(CCc1nc(-c2ccccc2)no1)NCc1ccccc1CN1CCOCC1
  A = -8%[59 µM]	B = ·	C = ·	D = ·	E = ·	F = ·
COc1ccc(-c2nc(NC(=O)c3[nH]c(C)c(C(C)=O)c3C)sc2C)cc1
  A = 50µM*	B = ?	C = -9%	D = -3%	E = ·	F = -4%
COc1ccc(OC)c(NC(=O)c2[nH]c(C)c(C(C)=O)c2C)c1
  A = 1%	B = -3%	C = 1%	D = -34%	E = ?	F = 2%
Cc1nn(-c2ccccc2)nc1C(=O)Nc1nnc(C(F)(F)F)s1
  A = -48%[59 µM]	B = -1%	C = 10%	D = -2%	E = ·	F = ·
